Results published in patent US8470871B2, “Ligands that modulate RAR receptors” (Galderma Research & Development, priority 2004, dated 2013).

Sequences of proteins named here, by UniProt entry; tags and fusion partners are left off. Residues count along the entry.
UniProt P10276, 183-417 limits assumed: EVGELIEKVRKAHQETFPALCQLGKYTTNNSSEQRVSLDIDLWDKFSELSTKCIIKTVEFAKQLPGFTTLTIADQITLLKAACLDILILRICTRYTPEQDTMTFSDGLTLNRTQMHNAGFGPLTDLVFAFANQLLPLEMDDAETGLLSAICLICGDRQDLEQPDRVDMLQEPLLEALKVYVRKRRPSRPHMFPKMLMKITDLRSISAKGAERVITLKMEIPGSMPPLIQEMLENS
UniProt P13631, 185-419 limits assumed: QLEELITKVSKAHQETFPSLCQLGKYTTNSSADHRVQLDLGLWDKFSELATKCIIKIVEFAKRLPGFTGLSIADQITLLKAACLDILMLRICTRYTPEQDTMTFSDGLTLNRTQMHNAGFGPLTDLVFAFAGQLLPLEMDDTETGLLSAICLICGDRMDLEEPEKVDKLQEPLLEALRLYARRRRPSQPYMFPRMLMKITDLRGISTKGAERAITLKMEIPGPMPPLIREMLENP

biological target: RARalpha (Homo sapiens, UniProt P10276); experiment: Transactivation test (Kdapp), RARalpha; format: cell-based; conditions: HeLa stable transfectants, luciferase reporter; crossed curves against reference agonist, Schild regression
Method: (§1) The activation of receptors with an agonist (activator) in HeLa cells leads to the expression of a reporter gene, luciferase, which, in the presence of a substrate, generates light. The activation of the receptors may thus be measured by quantifying the luminescence produced after incubating the cells in the presence of a reference agonist. The inhibitory products displace the agonist from its site, thus preventing activation of the receptor. The activity is measured by quantifying the reduction in light produced. This measurement makes it possible to determine the inhibitory activity of the compounds according to the invention.
(§2) In this study, a constant is determined which is the affinity of the molecule for the receptor. Since this value can fluctuate depending on the basal activity and the expression of the receptor, it is referred to as the Kd apparent (KdApp).
To determine this constant, “crossed curves” of the test product against a reference agonist, 4-[2-(5,5,8,8-tetramethyl-5,6,7,8-tetrahydro-2-naphthyl)propenyl]benzoic acid, are performed in 96-well plates. The test product is used at 10 concentrations and the reference agonist at 7 concentrations. […]
(§3) The culture medium is removed by turning over and 100 μl of a 1:1 PBS/luciferine mixture is added to each well. After 5 minutes, the plates are read using the luminescence reader.

Work on `CCN(C(C)=O)c1ccc(-c2cc(-c3ccc(C(=O)O)cc3)ccc2CCCNC2CC2)cc1C(C)(C)C` [Example 47, 4″-(acetylethylamino)-3″-tert-butyl-4′(3-cyclopropylaminopropyl)[1,1′;3′,1″]terphenyl-4-carboxylic acid] yielded a Kd of 120 nM.

biological target: RARgamma (Homo sapiens, UniProt P13631); experiment: Transactivation test (Kdapp), RARgamma; format: cell-based; conditions: HeLa stable transfectants, luciferase reporter; crossed curves against reference agonist, Schild regression
Method: as §1, §2
To determine this constant, “crossed curves” of the test product against a reference agonist, 4-[2-(5,5,8,8-tetramethyl-5,6,7,8-tetrahydro-2-naphthyl)propenyl]benzoic acid, are performed in 96-well plates. The test product is used at 10 concentrations and the reference agonist at 7 concentrations. In each well, the cells are in contact with a concentration of the test product and a concentration of the reference agonist, 4-[2-(5,5,8,8-tetramethyl-5,6,7,8-tetrahydro-2-naphthyl)propenyl]benzoic acid. Measurements are also taken for the total agonist (4-[2-(5,5,8,8-tetramethyl-5,6,7,8-tetrahydro-2-naphthyl)propenyl]benzoic acid) and inverse agonist, 4-{(E)-3-[4-(4-tert-butylphenyl)-5,5,8,8-tetramethyl-5,6,7,8-tetrahydro-2-naphthyl]-3-oxopropenyl}benzoic acid, controls.
The HeLa cell lines used are stable transfectants containing the plasmids ERE-βGlob-Luc-SV-Neo (reporter gene) and RAR (α, β, γ) ER-DBD-puro. These cells are inoculated into 96-well plates at a rate of 10,000 cells per well in 100 μl of DMEM medium without phenol red, and supplemented with 10% defatted calf serum. The plates are then incubated at 37° C. and 7% CO2 for 4 hours.
The plates are then incubated for 18 hours at 37° C. and 7% CO2.
as §3

First: CCN(C(C)=O)c1ccc(-c2cc(-c3ccc(C(=O)O)cc3)ccc2OCCCCO)cc1C(C)(C)C [Example 5, 4″-(acetylethylamino)-3″-tert-butyl-4′-(4-hydroxybutoxy)-[1,1′;3′,1″]terphenyl-4-carboxylic acid]
Second: CCN(C(C)=O)c1ccc(-c2cc(-c3ccc(C(=O)O)cc3)ccc2CCCO)cc1C(C)(C)C [Example 37, 4″-(acetylethylamino)-3″-tert-butyl-4′-(3-hydroxypropyl)-[1,1′;3′,1″]terphenyl-4-carboxylic acid]
The Kd of the first is 60-fold lower: 0.5 nM for the first, 30 nM for the second.

Going from `CCc1cc(-c2cc(-c3ccc(C(=O)O)cc3)ccc2OCCO)ccc1N(CC)CC` [Example 13, 4″-diethylamino-3″-ethyl-4′-(2-hydroxyethoxy)-[1,1′;3′,1″]terphenyl-4-carboxylic acid] to `CCN(CC)c1ccc(-c2cc(-c3ccc(C(=O)O)cc3)ccc2OCCCO)cc1C` [Example 17, 4″-diethylamino-4′-(3-hydroxypropoxy)-3″-methyl[1,1′;3′,1″]terphenyl-4-carboxylic acid], the Kd rises from 0.5 nM to 30 nM (60-fold). The first binds more tightly here.

Going from `CCN(CC)c1ccc(-c2cc(-c3ccc(C(=O)O)cc3)ccc2CCCO)cc1C(C)(C)C` [Example 33, 3″-tert-butyl-4″-diethylamino-4′-(3-hydroxypropyl)-[1,1′;3′,1″]terphenyl-4-carboxylic acid] to `CCN(CC)c1ccc(-c2cc(-c3ccc(C(=O)O)cc3)ccc2CC(O)CO)cc1C(C)(C)C` (stereo not shown) [Example 35, 3″-tert-butyl-4″-diethylamino-4′-(2,3-dihydroxypropyl)-[1,1′;3′,1″]terphenyl-4-carboxylic acid], the Kd rises from 0.5 nM to 8 nM (16-fold).

Compared with `CCN(C(C)=O)c1ccc(-c2cc(-c3ccc(C(=O)O)cc3)ccc2CCCNC2CC2)cc1C(C)(C)C` [Example 47, 4″-(acetylethylamino)-3″-tert-butyl-4′(3-cyclopropylaminopropyl)[1,1′;3′,1″]terphenyl-4-carboxylic acid], `CCNc1ccc(-c2cc(-c3ccc(C(=O)O)cc3)ccc2OCCCO)cc1C(C)(C)C` [Example 54, 3″-tert-butyl-4″-ethylamino-4′-(3-hydroxypropoxy)-[1,1′;3′,1″]terphenyl-4-carboxylic acid] is 480-fold lower in Kd: 120 nM for the first, 0.25 nM for the second.

same assay, conditions: HeLa stable transfectants, luciferase reporter; crossed curves against reference agonist, Schild regression; hydrochloride

With `CCN(CC)c1ccc(-c2cc(-c3ccc(C(=O)O)cc3)ccc2CCCO)cc1C(C)(C)C` [Example 52, [3″-tert-butyl-4-carboxy-4′-(3-hydroxypropyl)-[1,1′;3′,1″]terphenyl-4″-yl]diethylamine hydrochloride] the Kd was 0.25 nM.

Structures can show the parent of a compound that is named as a salt.
